Source: patent US20060281897A1, “Potentialization of the activation of high molecular weight prodrugs” (priority 2003, published 2006)

What was measured:
[1] = 24-hour incubation at 37° C. in culture medium containing 10% fetal calf serum, 20 μM
[2] = test system: LS-174T human colorectal adenocarcinomas xenografts; details: 80 μmol/kg, 30 minute i.v. infusion; for AUC0-24hrs Leu-doxorubicin in tumor / AUC0-24hrs doxorubicin in tumor: LS-174T tumors; for time after infusion at which Leu-doxorubicin and doxorubicin are detected in tumor: sampling 1, 3, 6, 24 hours
[3] = test system: peptidases secreted by LS-174T tumor cells; assay: Reactivation (hydrolysis) of prodrugs in medium conditioned by LS-174T tumor cells, HPLC; details: LS-174T conditioned medium, compound 20 μM, 6 hours, 37° C.
[4] = test system: LS-174T human colon cancer xenografts; assay: In vivo tumor reactivation of PEGylated prodrug derivatives (Dox and Leu-Dox accumulated in tumor); details: i.v. bolus 69 μmol/kg, LS-174T tumor
[5] = test system: peptidases secreted by MCF-7/6 tumor cells; assay: Reactivation (hydrolysis) of prodrugs in medium conditioned by MCF-7/6 tumor cells, HPLC; details: MCF-7/6 conditioned medium, compound 20 μM, 6 hours, 37° C.
[6] = test system: MCF-7/6 cells; assay: Cytotoxicity test (WST-1 cell viability); details: 48 hours incubation + 24 hours post-incubation

PEG2000-(DSer)4-beta-Ala-Leu-Ala-Leu-doxorubicin [PEG2000-(DSer)4-beta-ALAL-Dox]
stability [1]: stable

PEG30,000-Ala-Leu-Ala-Leu-Doxorubicin [PEG30,000-ALAL-Dox]
AUC0-24hrs Leu-doxorubicin in tumor [2]: 13.26 UNITS | AUC0-24hrs doxorubicin in tumor [2]: 1.56 UNITS | time after infusion at which Leu-doxorubicin and doxorubicin are detected in tumor [2]: 6 h

PEG2000-beta-Ala-Leu-Ala-Leu-doxorubicin [PEG2000-beta-ALAL-Dox]
DOX concentration reached [3]: 0.00 µM | L-DOX concentration reached [3]: 1.31 µM | DOX concentration in tumor ([4]; 2 hours after injection): 0.38 nmol/mg | Leu-DOX concentration in tumor ([4]; 2 hours after injection): 0.78 nmol/mg | DOX concentration in tumor ([4]; 72 hours after injection): 1.71 nmol/mg | Leu-DOX concentration in tumor ([4]; 72 hours after injection): 0.12 nmol/mg | DOX concentration reached [5]: 0.00 µM | L-DOX concentration reached [5]: 0.69 + μM | stability [1]: stable

PEG2000-(DSer)-beta-Ala-Leu-Ala-Leu-doxorubicin [PEG2000-DSer-beta-ALAL-Dox]
cytotoxicity [6]: not cytotoxic

PEG30,000-(DSer)8-Ala-Leu-Ala-Leu-Doxorubicin [PEG30,000-(DSer)8-ALAL-Dox]
AUC0-24hrs Leu-doxorubicin in tumor [2]: 21.10 UNITS | AUC0-24hrs doxorubicin in tumor [2]: 3.90 UNITS | time after infusion at which Leu-doxorubicin and doxorubicin are detected in tumor [2]: one hour following the infusion
